Data on one compound can be found in ChEMBL document CHEMBL4184302, “Virtual target screening reveals rosmarinic acid and salvianolic acid A inhibiting metallo- and serine-β-lactamases” (Bioorg Med Chem Lett, 2018).

Broadly, the IC50 is the point on the concentration scale where inhibition reaches its midpoint.

A short description of the test: Inhibition of bacterial N-terminal His6-tagged VIM2 (27 to 266 residues) expressed in Escherichia coli BL21 DE3 pLysS cells using FC-5 as substrate in presence of 1000 uM zinc by fluorescence assay. On the set-up: species or system Bacteria.

For the compound `O=C(/C=C/c1ccc(O)c(O)c1)O[C@H](Cc1ccc(O)c(O)c1)C(=O)O` [ROSMARINIC ACID], the half-inhibitory concentration (IC50) amounted to 45.9 µM.
